# Measured affinities in a library of Ab-14 heavy chain variants

Binding partner: SARS-CoV-2 spike HR2 peptide, sequence PDVDLGDISGINAS.

Parent: Ab-14, a human scFv built as VH, three GGGGS repeats, VL. Only the CDRs of the heavy chain vary.
VH: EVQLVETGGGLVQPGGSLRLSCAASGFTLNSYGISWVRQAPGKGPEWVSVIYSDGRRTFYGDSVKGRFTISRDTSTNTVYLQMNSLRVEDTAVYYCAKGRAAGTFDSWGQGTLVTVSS
VL: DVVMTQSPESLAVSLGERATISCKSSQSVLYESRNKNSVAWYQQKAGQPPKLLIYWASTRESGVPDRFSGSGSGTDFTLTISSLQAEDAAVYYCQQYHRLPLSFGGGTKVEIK

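AAYL49 was designed without a model: most single CDR substitutions and a random sample of double and triple ones. AlphaSeq pools MATa yeast showing the antibodies with MATalpha yeast showing the peptide. After mating in shaken culture at 30 °C for 16 h, diploids were selected and their barcode pairs sequenced. Each replicate has its own calibration line, from reference interactions of the BCL2 family. Each pool was mated in three replicate cultures.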

Positions count from residue 1 of the parent VH; S53M puts M in place of S.
Kd is apparent (estimated from mating counts) and averaged on the log scale over replicates with a signal. Smaller is tighter.
"nd" marks a missing value. The strain was present, yet no cells mated with the target were sequenced in any replicate, which points to weak or no binding.
Parent in this assay: reference entry 4.4 nM, copy in this library 13 µM (one replicate of three).

apparent Kd	seen in	changes
nd	0/3	S53M/A102P/T104Y
270 nM	1/3	F27P/G103T/S107P
75 µM	2/3	S31P/D54N/K65L
nd	0/3	G55E/D62A/A102C
nd	0/3	V50G/K65N/F105K
1.8 µM	1/3	F27A/L29T/V50N
nd	0/3	R56T/Y60G/S63Y
14 µM	2/3	Y32S/S35N/G99A
nd	0/3	Y32P/S53C/G99Y
1.2 mM	1/3	N30L/R57N/D62T
1.2 µM	1/3	S31N/D62K/V64N
nd	0/3	F59C/A102V/D106H
93 µM	1/3	I34Q/Y52T/D106K
nd	0/3	D54M/S63Y/R100C
nd	0/3	I34L/Y60S/G99Y
11 µM	2/3	S31Q/I34D/S53I
nd	0/3	V50I/V64D/R100L
nd	0/3	F27N/S35E/V64Y
nd	0/3	I34H/S63E/V64I
nd	0/3	D54E/T104G
nd	0/3	T28H/V50S/R57E
10 µM	2/3	S53G/F59K/G61M
nd	0/3	L29E/G61N/T104P
140 µM	2/3	I34R/V64M/A101V
13 µM	2/3	F27I/T28E/Y32T
nd	0/3	G33T/Y60D/G103T
nd	0/3	Y32H/I51C/S53Q
nd	0/3	G33I/A102V
31 nM	3/3	T58C/F59E/A101Y
200 nM	3/3	T28M/N30C
44 µM	1/3	Y52D/A101N
2.5 µM	2/3	T58F/D62N/F105D
100 µM	1/3	L29Y/N30T/G61S
nd	0/3	S53V/V64N/A102T
1.2 µM	1/3	F27Y/S53Q/G55Y
nd	0/3	N30H/G55C/R100L
170 nM	3/3	L29M/F59V/F105H
7.4 µM	2/3	N30Y/R57H
27 µM	1/3	T28W/Y32M/Y52H
19 nM	3/3	F59N/G99P/S107E
nd	0/3	I34T/R56L/R100L
nd	0/3	Y52E/R56M/R57Y
nd	0/3	T28I/I51C/F105L
nd	0/3	D54A/G55Q
nd	0/3	T28R/D54Q/D106I
nd	0/3	L29R/T58E/G61D
1.0 mM	1/3	L29C/T58A
17 µM	1/3	G55A/G61E/K65P
50 nM	3/3	A101R/G103I
nd	0/3	G33P/D106R
nd	0/3	I51E/K65W/G99F
920 nM	1/3	G33S/I51K/T104K
nd	0/3	Y32L/I51Q/R100C
nd	0/3	G55R/S107R
8.9 µM	1/3	R57T/K65T/F105H
18 µM	3/3	I51N/G55D

Background: pairings of library AAYL49 with three empty control strains gave a value in 15% of cases (median 11 µM, 5th percentile 680 nM). Values in that range, when seen in few replicates, are hard to tell from nonspecific mating.

From the AlphaSeq antibody data of Engelhart et al. 2022 (doi:10.1038/s41597-022-01779-4), copy in the FLAb collection.